## Binding of CDR-mutated scFvs to a peptide of the spike HR2 region

All variants were tested on one target, the spike HR2 peptide PDVDLGDISGINAS (SARS-CoV-2).

Parent scFv Ab-14: VH joined to VL by a (GGGGS)3 linker. Changes lie in the light chain CDRs alone.
VH: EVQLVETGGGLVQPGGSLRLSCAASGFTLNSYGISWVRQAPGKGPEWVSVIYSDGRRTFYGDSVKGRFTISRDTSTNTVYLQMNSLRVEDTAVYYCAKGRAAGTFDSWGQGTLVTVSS
VL: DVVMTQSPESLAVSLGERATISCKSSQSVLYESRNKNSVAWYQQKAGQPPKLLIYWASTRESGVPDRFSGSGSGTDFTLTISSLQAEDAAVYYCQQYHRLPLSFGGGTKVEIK

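The parent was found by panning a naive human phage display library on the peptide. This is the validation round: designs drawn from the data on random variants, tested in the same kind of assay. Group labels follow the data file (En: ensemble of fine-tuned language models; GP: Gaussian process model; HC: hill climbing; Gen: genetic algorithm; Gibbs: Gibbs sampling; a sequence that several methods proposed may carry one label only). AlphaSeq pools MATa yeast showing the antibodies with MATalpha yeast showing the peptide. Mating (16 h, 30 °C) was followed by selection of diploids and sequencing of their barcodes. Each replicate has its own calibration line, from reference interactions of the BCL2 family. The assay was run in six technical replicates.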

Variants are written as CDR1, CDR2 and CDR3 of the light chain (limits as in the source). Parent: KSSQSVLYESRNKNSVA, WASTRES, QQYHRLPLS. Variants here have more than six changes. Values are apparent Kd, the geometric mean of the replicates that gave a signal; lower means stronger binding. A pair that was not seen in any replicate is written "nd"; this usually means weak binding, but a binder can also be missed. In the paper, a design with two or fewer of six values counts as a poor binder. As a blank, each scFv also met three strains without target: over all light chain designs, 4% of these pairings were detected, typically at 430 nM and seldom below 38 nM. Of ten entries with the parent sequence, four were seen in most replicates (averages 2.2 nM to 240 nM), three in one and three in none, so single entries are noisy. Values of this round are not directly comparable with the first-round values of the same sequences.

The variant TISQSAQQESHNKNNVA | DLSVRGS | QQYHRLPLS [En_HC] gave 3.5 nM (6 of 6 replicates).
The variant KLSQSDLYESRNKNNVA | NASLREQ | QDYHRLPLS [GP_Gibbs] gave 790 pM (6 of 6 replicates).
The variant IISQVDAYELRNKNSIA | DQSTRGS | QQYDRLPLS [En_HC] gave 2.5 nM (6 of 6 replicates).
The variant TLGQVTMVESYNKDSVA | QANTRLE | QDYHRLPLS [En_HC] gave 7.4 nM (6 of 6 replicates).
The variant QIYQAMHTLSQMKNNVA | DVTNRGK | QQYFRLPLS [En_Gen] gave 2.7 nM (6 of 6 replicates).
The variant KITATMRFEQKASNNIA | EVSTRSK | QQYVRLPLA [En_Gen] gave 1.4 nM (6 of 6 replicates).
The variant MISQSFLIGSRLKNSVA | QTSTRES | QQYDRLPLS [En_HC] gave 14 nM (6 of 6 replicates).
The variant KLGGVTSYEMQNVNSVA | QMTTRES | QQYHRLPLS [En_HC] gave 780 pM (6 of 6 replicates).
The variant IIDSIMFHGNKRANSIA | QASERVN | QQYHHLPLT [En_Gen] gave 26 nM (6 of 6 replicates).
The variant ALTAHRQVAIEAKNSIA | NAVMRYQ | QQYAQLPLM [En_Gibbs] gave 28 nM (6 of 6 replicates).
The variant KLSWDDMSHFNTRSAVA | NTTMRAF | QQYNRLPLD [En_Gibbs] gave 21 nM (6 of 6 replicates).
The variant HLGLATMLEAQVRNSVA | NNSTRED | QQYDRLPLS [En_Gen] gave 500 nM (6 of 6 replicates).
The variant KSSISEDYEDRNQNSVA | SASQREH | QQYHRLPLS [GP_Gibbs] gave 6.1 nM (6 of 6 replicates).
The variant KIGMTLNMMMHTKNNVA | DLVTREN | QQYHRLPLS [En_Gen] gave 2.6 nM (6 of 6 replicates).
The variant KLSATYRFESQNKNSIA | EMTTREQ | QCYHRLPLS [En_HC] gave 100 nM (5 of 6 replicates).
The variant SLHDINMMGLANNANVA | NASQLFS | QHYFRLPLQ [En_Gibbs] gave 3.8 nM (6 of 6 replicates).
The variant KLSQEDWYESRNCNSVA | QASTREQ | QQYHRLPLS [GP_Gibbs] gave 3.1 nM (6 of 6 replicates).
The variant KSQMSWEYESRNSNSVA | QASTREL | QQYHRLPLI [GP_Gibbs] gave 2.1 nM (6 of 6 replicates).
The variant KIYQSVGTMSHNKQSIA | DMERRED | QQYHRLPLS [En_HC] gave 1.8 nM (6 of 6 replicates).
The variant AISQMTEPAAQNSNSIA | EEDRVTE | QQYSKLPLT [En_Gibbs] gave 9.6 nM (6 of 6 replicates).
The variant RIDPYEAMLGKNKESIA | EAAVTLT | QQYARLPLS [En_Gibbs] gave 2.8 nM (1 of 6 replicates).
The variant KLMNSLGAFKQWEDNVA | EVEHKVA | QQYDHLPLT [En_Gibbs] gave 240 nM (2 of 6 replicates).
The variant KFMQSMGYESRNQNSVA | DASTRRS | QQYHRLPLS [GP_Gibbs] gave 4.3 nM (6 of 6 replicates).
The variant MFSQSVMYGSFMRNSVA | QTSTREN | QQYDHLPLS [En_HC] gave 6.4 nM (6 of 6 replicates).
The variant KFSMSEDYESRNSNSVA | NAQTRLS | QQYHRLPLS [GP_Gibbs] gave 1.1 nM (6 of 6 replicates).
The variant QLYAVQDMTSKNKNSVA | EQSTRVN | QQYHRLPLS [En_HC] gave nd (0 of 6 replicates).
The variant KLSQQDWYESRNKNSVA | QASVREQ | QQYHRLPLS [GP_Gibbs] gave 2.0 nM (6 of 6 replicates).
The variant KFQQSVLYEDRNLNSVA | HGSTRSS | QDYHRLPLS [GP_Gibbs] gave 1.8 nM (6 of 6 replicates).
The variant QLEFRDVQGTANWHAIA | EGSQLGQ | QQYFHLPLG [En_Gibbs] gave 8.7 nM (6 of 6 replicates).
The variant NVGQSTDGESRNKNSVA | HQSTRED | QHYHRLPLS [En_HC] gave 2.1 nM (6 of 6 replicates).
The variant MLSDVVKMGSRNTNSVA | DNSTRGS | QQYDRLPLS [En_HC] gave 1.4 µM (5 of 6 replicates).
The variant HISMLTLQGMRQRNSVA | QMTTREN | QQYDRLPLS [En_Gen] gave 5.3 nM (6 of 6 replicates).
The variant KWDQEVDGQSRNKNSVA | QASTREW | QQYHRLPLS [GP_Gibbs] gave 4.4 nM (6 of 6 replicates).
The variant HISMLTLQGMRHRNSVA | QMTTREN | QQYDHLPLA [En_Gen] gave 74 nM (6 of 6 replicates).
The variant KLSMSGLYESRNWNSVA | NASLRES | QDYHRLPLS [GP_Gibbs] gave 4.6 nM (6 of 6 replicates).

The 4 strongest on average among those seen in every replicate, once more:

| CDR-L1 | CDR-L2 | CDR-L3 | group | Kd (apparent) | replicates with signal |
|---|---|---|---|---|---|
| KLGGVTSYEMQNVNSVA | QMTTRES | QQYHRLPLS | En_HC | 780 pM | 6 of 6 |
| KLSQSDLYESRNKNNVA | NASLREQ | QDYHRLPLS | GP_Gibbs | 790 pM | 6 of 6 |
| KFSMSEDYESRNSNSVA | NAQTRLS | QQYHRLPLS | GP_Gibbs | 1.1 nM | 6 of 6 |
| KITATMRFEQKASNNIA | EVSTRSK | QQYVRLPLA | En_Gen | 1.4 nM | 6 of 6 |

Reference: Li et al. 2023, doi:10.1038/s41467-023-39022-2. File: FLAb, binding data.